# Values quoted from earlier work as cited in patent US20170007633A1, “TREATMENT OF NEURODEGENERATIVE AND NEURODEVELOPMENTAL DISEASES BY INHIBITION OF THE a2-Na/K ATPase/a-ADDUCIN COMPLEX” (PRESIDENT AND FELLOWS OF HARVARD COLLEGE, priority 2014, published 2017).
# Test system: ALS
# Conditions: ALS patients; cited from earlier work
smiles,measurement,value
Nc1nc2ccc(OC(F)(F)F)cc2s1 [Riluzole],increase of patient survival on average,2-3 months
